Laboratory results from paper PMC8201645 (2020).

What follows are compounds tested against PPARδ ligand-binding domain (assay: FRET or BRET). Conditions: not given.

Compound	EC50 of compound 4p (compound concentration) for binding of the peptide [µM]	EC50 of compound 4d (compound concentration) for binding of the peptide [µM]
fluorescein-labeled SMRT-ID2 corepressor peptide	20.2	12.5

These compounds were tested against T1, PPARδ (Homo sapiens, UniProt Q03181) (assay: not given). Conditions: at 30 μM; TR-FRET competitive binding.
T1 sequence (Q03181 171-441 limits assumed): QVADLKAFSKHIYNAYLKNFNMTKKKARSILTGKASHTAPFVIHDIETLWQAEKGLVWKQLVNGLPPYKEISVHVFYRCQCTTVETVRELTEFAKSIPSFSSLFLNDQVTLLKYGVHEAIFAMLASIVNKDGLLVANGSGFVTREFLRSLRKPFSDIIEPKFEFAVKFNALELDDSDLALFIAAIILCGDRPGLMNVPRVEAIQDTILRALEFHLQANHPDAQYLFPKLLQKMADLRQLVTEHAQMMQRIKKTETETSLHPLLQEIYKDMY

Compound	PPARδ % replacement [% at 30 μM]
O[C@@H]1[C@H](O)CO[C@H]1Cn1cnc2c(NCc3cccc(F)c3)ncnc21 [4q, (2S,3R,4R)-2-((6-((3-Fluorobenzyl)amino)-9H-purin-9-yl)methyl)-tetrahydrofuran-3,4-diol]	14.6
CC#Cc1nc(NCc2cccc(I)c2)c2ncn(C[C@@H]3SC[C@@H](O)[C@H]3O)c2n1 [4l, (2S,3R,4S)-2-((6-((3-Iodobenzyl)amino)-2-(prop-1-yn-1-yl)-9H-purin-9-yl)methyl)tetrahydrothiophene-3,4-diol]	15.9

More lines, now with the values ahead:

PPARδ % replacement [% at 30 μM]	Compound
16.5	O[C@@H]1[C@H](O)CO[C@H]1Cn1cnc2c(NCc3cccc(Br)c3)ncnc21 [4s, (2S,3R,4R)-2-((6-((3-Bromobenzyl)amino)-9H-purin-9-yl)methyl)-tetrahydrofuran-3,4-diol]
13.8	CC#Cc1nc(NCc2cccc(F)c2)c2ncn(C[C@@H]3SC[C@@H](O)[C@H]3O)c2n1 [4i, (2S,3R,4S)-2-((6-((3-Fluorobenzyl)amino)-2-(prop-1-yn-1-yl)-9H-purin-9-yl)methyl)tetrahydrothiophene-3,4-diol]
15.3	CC#Cc1nc(NCc2cccc(Br)c2)c2ncn(C[C@@H]3SC[C@@H](O)[C@H]3O)c2n1 [4k, (2S,3R,4S)-2-((6-((3-Bromobenzyl)amino)-2-(prop-1-yn-1-yl)-9H-purin-9-yl)methyl)tetrahydrothiophene-3,4-diol]
10.6	O[C@@H]1[C@H](O)CO[C@H]1Cn1cnc2c(NCc3cccc(Cl)c3)ncnc21 [4r, (2S,3R,4R)-2-((6-((3-Chlorobenzyl)amino)-9H-purin-9-yl)methyl)-tetrahydrofuran-3,4-diol]

These compounds were tested against PPARγ (Homo sapiens, UniProt P37231) (assay: not given). Conditions: at 30 μM; TR-FRET competitive binding.

PPARγ % replacement [% at 30 μM]	Compound
39.2	O[C@@H]1[C@H](O)CS[C@H]1Cn1cnc2c(NCc3cccc(I)c3)ncnc21 [4h, (2S,3R,4S)-2-((6-((3-Iodobenzyl)amino)-9H-purin-9-yl)methyl)-tetrahydrothiophene-3,4-diol]
13.3	O[C@@H]1[C@H](O)CO[C@H]1Cn1cnc2c(NCc3cccc(F)c3)ncnc21 [4q, (2S,3R,4R)-2-((6-((3-Fluorobenzyl)amino)-9H-purin-9-yl)methyl)-tetrahydrofuran-3,4-diol]
33.5	O[C@@H]1[C@H](O)CS[C@H]1Cn1cnc2c(NCc3cccc(Br)c3)ncnc21 [4g, (2S,3R,4S)-2-((6-((3-Bromobenzyl)amino)-9H-purin-9-yl)methyl)-tetrahydrothiophene-3,4-diol]
24.4	O[C@@H]1[C@H](O)CS[C@H]1Cn1cnc2c(NCc3cccc(F)c3)ncnc21 [4e, (2S,3R,4S)-2-((6-((3-Fluorobenzyl)amino)-9H-purin-9-yl)methyl)-tetrahydrothiophene-3,4-diol]
24.9	O[C@@H]1[C@H](O)CS[C@H]1Cn1cnc2c(NCc3cccc(Cl)c3)ncnc21 [4f, (2S,3R,4S)-2-((6-((3-Chlorobenzyl)amino)-9H-purin-9-yl)methyl)-tetrahydrothiophene-3,4-diol]
34.1	O[C@@H]1[C@H](O)CS[C@H]1Cn1cnc2c(NCc3cccc(Cl)c3)nc(Cl)nc21 [4b, (2S,3R,4S)-2-((2-Chloro-6-((3-chlorobenzyl)amino)-9H-purin-9-yl)methyl)tetrahydrothiophene-3,4-diol]
41.7	CC#Cc1nc(NCc2cccc(Cl)c2)c2ncn(C[C@@H]3SC[C@@H](O)[C@H]3O)c2n1 [4j, (2S,3R,4S)-2-((6-((3-Chlorobenzyl)amino)-2-(prop-1-yn-1-yl)-9H-purin-9-yl)methyl)tetrahydrothiophene-3,4-diol]

Same assay, conditions: of GW1929

maximum binding efficacy relative to GW1929 (PPARγ full agonist)	Compound
around 40%	CC#Cc1nc(NCc2cccc(Cl)c2)c2ncn(C[C@@H]3SC[C@@H](O)[C@H]3O)c2n1 [4j, (2S,3R,4S)-2-((6-((3-Chlorobenzyl)amino)-2-(prop-1-yn-1-yl)-9H-purin-9-yl)methyl)tetrahydrothiophene-3,4-diol]
